For the experiment, the system named is NCI-H929 target cells. The experiment in a line: ACTR T-cell cytokine release (IFNγ, IL2; Meso Scale Discovery) in co-culture with target cells and antibody. The class given is cell-based, human. To be noted: T-cells expressing ACTR SEQ ID NO:1, E:T 4:1, 24-hour, increasing antibody concentrations, BCMA+ HER2− NCI-H929. The procedure:
T-cells expressing ACTR variant SEQ ID NO: 1 (effector; E) and target cells (target; T) were incubated at a 4:1, effector-to-target ratio (120,000 T cells; 30,000 target cells) with increasing concentrations of various chimeric antibodies in a 200-μL reaction volume in RPMI 1640 media supplemented with 10% fetal bovine serum. In FIG. 4, the chimeric antibodies included fucosylated and afucosylated (SEA) versions of the SG16.17 and SG16.45 anti-BCMA antibodies at a concentration range of 100-0.0005 μg/mL. In FIG. 9, humanized afucosylated (SEA) SG16.17 antibody was used at a concentration range of 3.8-0.002 μg/mL. […] Supernatants were subsequently analyzed for IFNγ and IL2 using the Meso Scale Discovery V-Plex Human IFN-γ Kit (K151QOD-4) and V-Plex Human IL-2 Kit (K151QQD-4). Briefly, the Proinflammatory Calibrator Blend, Detection Antibody Solution, and Read Buffer were prepared according to manufacturer protocols. […] Read Buffer (150 μL) was added to the plate and the plates were run on the MSD Quickplex SQ 120.
ACTR or mock T-cells (effector; E) and target cells (target; T) were incubated at a 4:1 E:T ratio in the presence of increasing concentrations of anti-BCMA (hSG16.17 SEA) or anti-HER2 (trastuzumab) targeting antibodies. […] Supernatants were subsequently analyzed for IFNγ using the Meso Scale Discovery V-Plex Human IFN-γ Kit (K151QOD-4). […]

For trastuzumab [reference compound], the IFNγ production entry is given as “minimal IFNγ”.

Source of the values: patent US20190381171A1, “CO-USE OF ANTI-BCMA ANTIBODY AND ANTIBODY-COUPLED T CELL RECEPTOR (ACTR) IN CANCER THERAPY AND B CELL DISORDERS” (UNUM THERAPEUTICS INC., priority 2017, published 2019).
